From patent US6737441B2, “Treatment of helicobacter with isothiocyanates” (priority 2000, dated 2004)

How the values were obtained:
[1] = system: amoxicillin/clarithromycin/metronidazole - susceptible strains of Helicobacter pylori; assay: Bacteriostatic activity (MIC) against susceptible strains; assay type: cell-based
[2] = system: clarithromycin and/or metronidazole - intermediate or resistant strains of Helicobacter pylori; assay: Bacteriostatic activity (MIC) against intermediate or resistant strains; assay type: cell-based; details: H. pylori strain no 34

Measured: MIC

CC1(C)S[C@@H]2[C@H](NC(=O)[C@H](N)c3ccc(O)cc3)C(=O)N2[C@H]1C(=O)O [Amoxicillin]
0.125 µg/mL: [1]; H. pylori strain no 21 | [1]; H. pylori strain no 29 | [2]
